Experimental data from ChEMBL document CHEMBL2417510, “Stereoselective pharmacodynamic and pharmacokinetic analysis of sec-Butylpropylacetamide (SPD), a new CNS-active derivative of valproic acid with unique activity against status epilepticus” (J Med Chem, 2013).

Tested on: Cavia porcellus
Assay: Anticonvulsant activity in ip dosed guinea pig assessed as protection against soman-induced electrographic and convulsive seizures administered 40 mins post seizure

CCCC(C(N)=O)C(C)CC (racemic)
ED50: 92 mg/kg
